How the values were obtained:
[1] = 250 g rat; calculated from literature half-life and volume of distribution
[2] = Crawley and Haines; cited from earlier work

trisodium diethylenetriamine pentaacetic acid [DTPA]
clearance of DTPA [1]: 0.02 L/h
half-life of DTPA in extracellular fluid [2]: 18.5 min
